Source: US11130780B2, “Inhibitors of growth factor activation enzymes” (Washington University, priority 2015, dated 2021)

Biological target: T1, matriptase (Homo sapiens, UniProt Q9Y5Y6)
T1 construct: Charles Craik, UCSF (obtained from another laboratory)
T1 sequence (Q9Y5Y6 615-855 limits assumed): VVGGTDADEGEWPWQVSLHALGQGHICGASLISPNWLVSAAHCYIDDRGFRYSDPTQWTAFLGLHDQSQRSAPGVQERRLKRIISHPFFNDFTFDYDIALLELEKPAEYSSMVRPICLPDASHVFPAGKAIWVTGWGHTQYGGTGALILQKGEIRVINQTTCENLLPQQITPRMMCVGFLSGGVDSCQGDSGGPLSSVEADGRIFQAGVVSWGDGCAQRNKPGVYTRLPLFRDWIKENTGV
Assay: Fluorescent kinetic enzyme inhibitor assay of matriptase
Format: biochemical
Conditions: Table 9.1; Fluorogenic Assay
Procedure: Inhibitors (11-pt serial dilutions, 0-20 μM final concentration in reaction) were serially diluted in DMSO (2% DMSO final concentration) and then mixed with either recombinant serine protease domain of HGFA [Z. Han, P. K. Harris, D. E. Jones, R. Chugani, T. Kim, M. Agarwal, W. Shen, S. A. Wildman, J. W. Janetka, Acs Med Chem Lett 2014, 5, 1219-1224], matriptase (Charles Craik, UCSF) or hepsin* (#4776-SE-010, R&D Systems, Minneapolis, Minn.) in black 384 well plates (Corning #3575. Corning, N.Y.). […] The final substrate concentrations for all assays were at the Km for the respective enzymes. Changes in fluorescence (excitation at 380 nm and emission at 460 nm) were measured at room temperature over time in a Biotek Synergy 2 plate reader (Winnoski, Vt.). Using GraphPad Prism version 6.04 software program, (GraphPad Software, San Diego, Calif., www.graphpad.com), a four parameter curve fit was used to determine the inhibitor IC50s from a plot of the mean reaction velocity versus the inhibitor concentration. The IC50 values represent the average of three separate experimental determinations.

A Ki of 430 nM was found for `Cc1ccc(S(=O)(=O)N[C@@H](Cc2cccc(C(=N)N)c2)C(=O)N2CCN(C(=O)OCc3ccccc3)CC2)cc1` [Compound 25h, (S)-Benzyl 4-(3-(3-carbamimidoylphenyl)-2-(4-methylphenylsulfonamido)propanoyl)piperazine-1-carboxylate] in this work.
